pIC50: −log10 of the molar value.

The subject of assay [1] is CCRF-CEM. Put plainly: Cytotoxicity against human CCRF-CEM cells after 72 hrs by XTT assay. The assay is classed as functional, cell-based. Summed up: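 Leukaemic CCRF-CEM cells and their taxol- and vinblastine-resistant sublines exposed for 72 h. XTT assay read at 450 and 630 nm after 6 h with phenazine methosulfate-XTT at 37 °C. IC50 obtained by the median-effect principle from six or seven concentrations, in duplicate or triplicate.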
Background: Tetrazolium assays rely on reduction of a dye to a coloured formazan, in cell work by metabolically active cells.

Assay [2] relates to CCRF-CEM. The experiment in a line: Cytotoxicity against taxol-resistant human CCRF-CEM cells after 72 hrs by XTT assay.
For the next assay, the system named is HCT-116. Put plainly: Cytotoxicity against human HCT116 cells after 72 hrs by SRB assay. Format: functional, cell-based. Summed up:
(§1)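 Solid tumour cells (breast MX-1, colon HCT116) exposed for 72 h. Growth measured by SRB assay. IC50 obtained by median-effect plot from six or seven concentrations, in duplicate or triplicate.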
For orientation: The SRB assay estimates cell density from bound dye.

In assay [3] the test system is CCRF-CEM. The experiment in a line: Cytotoxicity against vinblastine-resistant human CCRF-CEM cells after 72 hrs by XTT assay.
A further assay deals with MX1. Put plainly: Cytotoxicity against human MX1 cells after 72 hrs by SRB assay. Format: functional, cell-based. In short, it runs like this:
as §1

Take `Nc1ccc(N(CCCl)CCCl)cc1`: the pIC50 with CCRF-CEM [1] is 7.36; with CCRF-CEM [2], 7.47; in the assay with HCT-116, 6.47; in the assay with CCRF-CEM [3], 7.59; in the assay on MX1 it was 7.07.

A word on the pIC50: it is the IC50 on a negative log10 scale, so that one unit is a factor of ten. A lower pIC50 goes with a high IC50.
